Assay results reported in patent publication US10722484B2, “Methods of cancer treatment” (K-Gen, Inc., priority 2016, dated 2020).

System: colon cancer cell line Colo205
Test: MacSynergy combination experiments
Type: cell-based
Procedure: A 96-well MacSynergy II format for combination test was also used. […] The analysis was done with the SQRT(Data) scale and the four parameter Hill curve was fitted using XLfit5.1 (the MacSynergy II Excel Spreadsheet) for the inhibition data. Synergy (positive number) or Antagonism (negative number) volumes were calculated. […] Three-dimensional MacSynergy II graphs were generated where positive values indicated synergism and negative values indicated antagonism.

## O=C1[O][Pt]2([NH][C@@H]3CCCC[C@H]3[NH]2)[O]C1=O [Oxaliplatin]
Colo205, in combination with K101A (column not headed)
  synergy volume (MacSynergy): 11
Colo205, in combination with K102 (column not headed)
  synergy volume (MacSynergy): 25
